Screening results from PubChem BioAssay.
In the library only some 3.7% were active in any assay of this set; here they are far more common.
ClpP mod – qHTS Assay for Activators of ClpP; hit rate 1.9% among 340,000; purified B. subtilis ClpP, FRET peptide cleavage, 20 min; Potency, µM (titrated, usually from 57.5 µM), for inactives: at the top dose activity change, negative = active; ATP-dependent Clp protease proteolytic subunit (Bacillus subtilis (strain 168)), P80244; AID 651965, 2013; active means well fitted falling curve with a large enough effect; inconclusive means small, poorly fitted or top-dose-only effect; inactive means no such curve, though single readings can be large or run the other way; further: potency means the concentration at half of the fitted maximal effect; the source files actives as falling curves though it sought activators and does not explain the sign; nearly all actives have a fitted effect of over 65% in size
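FRET quenching reversal measured ClpP activation: 10 microg/mL B. subtilis ClpP at pH 8 with the FRET-FV decapeptide, read at 430 nm after 320 nm excitation. The 20-min minus 0-min signal was scaled between DMSO/no-enzyme wells and ADEP (5.8 microM final).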
A549 tox-1 – kills or reduces viability of A549 cells in Nrf2 counter-screen | A549 ARE-Fluc cells, CellTiter-Fluor viability, 18-24 h | Potency, µM (doses to about 46 µM), for the others: at the highest dose activity change, negative = cytotoxicity, usual class: inhibitors | hit rate 0.16% among 390,000 | AID 504648; further: potency means the concentration at half of the fitted maximal effect; on the % scale 0 is the no-effect control and ±100 the full control effect
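A549 ARE-Fluc cells in 5% FBS OPTI-MEM, 5000 cells/well, rested 2 h then exposed to compounds in concentration-response for 18-24 h at 37 °C. Viability by CellTiter-Fluor fluorescence (Ex 405/Em 525) after 30 min; luciferase luminescence (BugLite, 15 min, RT) read afterwards.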
Nrf2 activator – activators of Nrf2 (ARE) signaling | hit rate 0.31% among 410,000 | AREc32 ARE-luciferase reporter (MCF7-derived line), luminescence, 24 h | AID 624171 | Potency, µM (titrated, usually from 46.1 µM), without a hit: at the highest dose activation, hits mostly activators; further: potency means the concentration at half of the fitted maximal effect; % of control where 0% means no effect; nearly all actives have a fitted effect of over 65% in size
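Luciferase luminescence (Steady-Glo, 30 min at room temperature) served as the read-out of ARE activation in AREc32 cells treated with compounds for 24 hr at 37 deg C.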
miR-21 reporter – miR-21 reporter, rising signal | HeLa miR-21 FLuc reporter, luciferase, 48 h | Potency, µM (highest dose often 38.3 µM), for inactives: at the top dose reporter change, positive = more light | 340,000 tested, under 10 active | AID 2288; active = well fitted rising curve with a large enough effect; inconclusive = small, poorly fitted or top-dose-only effect; inactive = no such curve, though single readings can be large or run the other way;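 further: % of control where 0% means no effect; miR-21 action dims this reporter so a rising signal means less miR-21 action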
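HeLa cells stably expressing CMV-driven firefly luciferase with a downstream miR-21 binding sequence, endogenously expressing miR-21, were treated with titrations (up to about 40uM final) for 48 hours at 37 degree Celsius. Luciferase luminescence was read after lysis.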
IL2 activator – IL-2 activation; AID 652025; hit rate 0.065% among 360,000; IL-2 activation reporter assay, cell-based qHTS; stimulated with anti-CD3/CD4/CD28 beads; in transgenic mouse T cells; activation, % (series mostly up to about 46 µM); in the data active means activation above about 50%; inconclusive means mostly about 30% to 49%; further: 0% is about no effect
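Quantitative HTS in unstimulated transgenic mouse T cells, with memory T cells as non-tolerant control and PMA/ionomycin as tolerance-bypass control. Compound pretreatment lasted 60 minutes before 18 h bead stimulation; EGFP/DsRed fluorescence read.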
Nrf2 inh – inhibitors of Nrf2 signaling; AID 504444; A549 ARE-Fluc reporter, luciferase luminescence, 18-24 h; Potency, µM (series often up to 46 µM), for the others: at the highest dose activity change, negative = inhibition, actives largely listed as inhibitors; hit rate 2.1% among 360,000; further: potency means the concentration at half of the fitted maximal effect; on the % scale 0 is the no-effect control and ±100 the full control effect; nearly all actives have a fitted effect of over 60% in size
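In this cell-based qHTS, ARE-driven firefly luciferase in A549 cells reports Nrf2 activity; the luminescent signal after BugLite lysis is the measured value, with a prior CellTiter-Fluor read for cell health.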
FLuc enzyme inh – counter-screen for Nrf2 inhibitors: firefly luciferase enzyme inhibition. AID 720522. shares compounds with Nrf2 inh. purified firefly luciferase, luminescence inhibition. hit rate 4% among 1,400. Potency, µM (titrated, usually from 57.5 µM), without a hit: at the highest dose activity change, negative = inhibition, hits mostly inhibitors; further: potency means the concentration at half of the fitted maximal effect; on the % scale 0 is the no-effect control and ±100 the full control effect; nearly all actives have a fitted effect of over 65% in size
A549 tox-2 – A549 cytotoxicity, Nrf2 inhibitor counterscreen; shares compounds with Nrf2 inh; A549 ARE-Fluc cells, cytotoxicity counterscreen; Potency, µM (series often up to 46.1 µM), without a hit: top-dose activity change, negative = cytotoxicity, most hits filed as inhibitors; hit rate 2% among 1,400;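 further: potency means the concentration at half of the fitted maximal effect; cells exposed to compounds for 18 to 24 hours; on the % scale 0 is the no-effect control and ±100 the full control effect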
Nrf2 ARE inh – confirmation of Nrf2 inhibitors in A549 ARE reporter cells | Potency, µM (titrated, usually from 46.1 µM), without a hit: top-dose activity change, negative = inhibition, usual class: inhibitors | shares compounds with Nrf2 inh | hit rate 74% among 1,400 | A549 ARE-firefly luciferase reporter, luminescence; further: potency means the concentration at half of the fitted maximal effect; on the % scale 0 is the no-effect control and ±100 the full control effect; nearly all actives have a fitted effect of over 65% in size
An asterisk follows results filed as active; ? = inconclusive; nt = no result given. Unless noted, the call rests on the fitted dose curve; in most records, active means well fitted curve in the direction sought with a large enough effect; inconclusive means small, poorly fitted or top-dose-only effect, or another doubt; inactive means no such curve, though single readings can be large; an effect the other way counts as inactive or inconclusive.

Molecule	IL2 activator	Nrf2 inh	Nrf2 activator	ClpP mod	Nrf2 ARE inh	A549 tox-1	A549 tox-2	FLuc enzyme inh	miR-21 reporter
O=c1c2ccccc2nc2n1-c1ccccc1CCC2	1	-4%	0%	-6%	nt	-16%	nt	nt	9%
CCc1nnc2c3ccccc3nc(Nc3ccc(F)cc3C)n12	nt	?	1%	-1%	nt	-6%	nt	nt	-22%
CN(Cc1cnc2nc(N)nc(N)c2n1)c1ccc(C(=O)NC(CCC(=O)O)C(=O)O)cc1C(F)(F)F (stereo unspecified)	0	?	1%	?	nt	-19%	nt	nt	nt
CN(Cc1cnc2nc(N)nc(N)c2n1)c1ccc(C(=O)NC(CCC(=O)O)C(=O)O)cc1 (stereo unspecified)	0	0.29µM*	0%	16µM*	1.5µM*	-9%	-9%	-17%	nt
O=C(Nc1cccc(C(=O)OCc2cc(=O)n3ccsc3n2)c1)c1ccc(F)cc1	nt	nt	3%	0%	nt	15%	nt	nt	0%
Cc1ccc(-n2nc3c(=O)n(C(C)C(=O)NCc4ccc(OC(C)C)cc4)nc(C)c3c2C)cc1 (stereo unspecified)	nt	1.8µM*	-1%	-1%	8.2µM*	-4%	-11%	1%	?
CC1C(=O)OC(c2ccc(Cl)cc2)C(C)(C)C1=O (stereo unspecified)	1	-6%	0%	-3%	nt	-1%	nt	nt	0%
C[C@@H]1C=CC(=O)O[C@@H]1c1ccc(Cl)cc1	-1	9.2µM*	0%	-1%	5.8µM*	-1%	-15%	1%	?
CCOc1cc(CNC(=O)CSc2n[nH]c(-c3ccccc3)n2)cc(OCC)c1OCC	nt	nt	0%	-1%	nt	4%	nt	nt	-4%
COc1ccc(N2CCN(C(=S)Nc3ccccc3)CC2)cc1	-1	0%	-1%	1%	nt	10%	nt	nt	5%

Overlap with the part before: four entries, followed by the next part.
Molecule	IL2 activator	Nrf2 inh	Nrf2 activator	ClpP mod	Nrf2 ARE inh	A549 tox-1	A549 tox-2	FLuc enzyme inh	miR-21 reporter
CC1C(=O)OC(c2ccc(Cl)cc2)C(C)(C)C1=O (stereo unspecified)	1	-6%	0%	-3%	nt	-1%	nt	nt	0%
C[C@@H]1C=CC(=O)O[C@@H]1c1ccc(Cl)cc1	-1	9.2µM*	0%	-1%	5.8µM*	-1%	-15%	1%	?
CCOc1cc(CNC(=O)CSc2n[nH]c(-c3ccccc3)n2)cc(OCC)c1OCC	nt	nt	0%	-1%	nt	4%	nt	nt	-4%
COc1ccc(N2CCN(C(=S)Nc3ccccc3)CC2)cc1	-1	0%	-1%	1%	nt	10%	nt	nt	5%
CC(=O)c1ccc(N2CCN(C(=S)Nc3ccc(Oc4ccccc4)cc3)CC2)cc1	0	6.5µM*	2%	nt	8.2µM*	?	-1%	-9%	26%
CCCN1CCN(CC2=C(C(=O)OCC)C(c3cccc(OC)c3OC)NC(=O)N2)CC1 (stereo unspecified)	nt	17%	0%	-1%	nt	-10%	nt	nt	3%
COc1ccccc1Nc1nc(-c2sc(NC(=O)C(C)(C)C)nc2C)cs1	1	7.3µM*	1%	-11%	21µM*	-4%	-18%	?	26%
CCC(=O)Nc1nc(C)c(-c2csc(Nc3ccc(C(=O)O)cc3)n2)s1	-1	16%	-1%	nt	nt	-1%	nt	nt	2%
CCCC(=O)Nc1nc(C)c(-c2csc(Nc3ccc(Cl)cc3)n2)s1	0	7.3µM*	9%	?	?	?	-17%	17µM*	14%
CCCC(=O)Nc1nc(C)c(-c2csc(Nc3ccccc3OC)n2)s1	0	11%	0%	-6%	nt	-3%	nt	nt	12%
CCn1cc2nc(SCc3ccc(F)cc3)n(Cc3ccc(Cl)cc3)c(=O)c2n1	nt	?	-1%	-1%	nt	4%	nt	nt	2%
COc1ccccc1-[n+]1c(C)cc(/C=C2\Sc3ccccc3N2C)cc1C	11	4.1µM*	-2%	-1%	0.26µM*	?	?	0.54µM*	?
COc1ccc(C(=O)/C=C2\Sc3ccccc3N2C)cc1	2	?	4%	nt	nt	-12%	nt	nt	-35%
COCCCn1c(=N)c(C(=O)NC2CCCCC2)cc2c(=O)n3cc(C)ccc3nc21	nt	8%	0%	4%	nt	0%	nt	nt	-2%
CN(C)c1ccc(/C=C/c2cc3ccccc3c[n+]2C)cc1	nt	nt	nt	-2%	6.5µM*	nt	?	-22%	nt
CN(C)c1ccc(/C=C/c2ccc3c4ccccc4ccc3[n+]2-c2ccccc2)cc1	-8	3.7µM*	-3%	-18%	2.9µM*	10µM*	7.3µM*	?	?
CN(C)c1ccc(/C=C/c2nccc3ccccc23)cc1	nt	nt	nt	2%	nt	nt	nt	nt	nt
COc1ccccc1NC(=O)C1CCN(S(=O)(=O)c2ccc3c(c2)oc(=O)n3C)CC1	nt	0%	-2%	-21%	nt	7%	nt	nt	-4%
Cc1c(C(=O)NCc2cccc(Cl)c2)sc2nc3n(c(=O)c12)CCC3	nt	?	3%	-19%	nt	11%	nt	nt	-5%
Cc1cc(C)nc(OC(C(=O)O)C(OCCc2ccccc2)(c2ccc(F)cc2)c2ccc(F)cc2)n1 (stereo unspecified)	1	?	-1%	-1%	nt	-15%	nt	nt	26%
CCCOC(c1ccccc1)(c1ccc(C(F)(F)F)cc1)C(Oc1nc(C)cc(C)n1)C(=O)O (stereo unspecified)	0	3.3µM*	0%	1%	1.8µM*	-28%	-29%	-1%	25%
O=C(CSc1ncnc2c1cnn2-c1ccc(F)cc1)NC1CCCC1	0	5.2µM*	1%	-4%	?	1%	0%	-11%	-17%
O=c1c2sc3ccccc3c2n(Cc2cccc(Cl)c2)c(=O)n1Cc1ccc(F)cc1	nt	-22%	0%	-24%	nt	12%	nt	nt	-4%
COCCNC(=O)c1ccc(-c2nc(CN3CCc4ccccc43)c(C)o2)cc1	nt	nt	0%	-4%	nt	0%	nt	nt	11%
CC(C)Cn1c(N)c(C(=O)COC(=O)/C=C/c2ccccc2)c(=O)n(C)c1=O	-1	6.5µM*	0%	-7%	7.3µM*	?	-5%	1%	nt
CC(C)Cn1c(N)c(C(=O)COC(=O)CC23CC4CC(CC(C4)C2)C3)c(=O)n(C)c1=O	0	2.1µM*	0%	-5%	nt	?	-12%	-28%	?
CC(C)Cn1c(N)c(C(=O)CSc2ccccc2)c(=O)n(C)c1=O	-1	?	2%	4%	nt	-2%	nt	nt	-9%
Cc1ccc(-n2nc3c(=O)n(CC(=O)NC(C)C)nc(C)c3c2C)cc1	nt	28%	-1%	0%	nt	1%	nt	nt	0%
CC(C)CCNC(=O)C(c1ccncc1)N(Cc1cccs1)C(=O)Cn1nnc(-c2ccc(F)cc2)n1 (stereo unspecified)	-2	2.6µM*	9%	-4%	1.5µM*	?	?	-3%	-16%
